The results in this text go back to PMC8474115 (Journal of Medicinal Chemistry, 2021).

Sequences of proteins named here, by UniProt entry; tags and fusion partners are left off. Residues count along the entry.
UniProt O70212, 20-490: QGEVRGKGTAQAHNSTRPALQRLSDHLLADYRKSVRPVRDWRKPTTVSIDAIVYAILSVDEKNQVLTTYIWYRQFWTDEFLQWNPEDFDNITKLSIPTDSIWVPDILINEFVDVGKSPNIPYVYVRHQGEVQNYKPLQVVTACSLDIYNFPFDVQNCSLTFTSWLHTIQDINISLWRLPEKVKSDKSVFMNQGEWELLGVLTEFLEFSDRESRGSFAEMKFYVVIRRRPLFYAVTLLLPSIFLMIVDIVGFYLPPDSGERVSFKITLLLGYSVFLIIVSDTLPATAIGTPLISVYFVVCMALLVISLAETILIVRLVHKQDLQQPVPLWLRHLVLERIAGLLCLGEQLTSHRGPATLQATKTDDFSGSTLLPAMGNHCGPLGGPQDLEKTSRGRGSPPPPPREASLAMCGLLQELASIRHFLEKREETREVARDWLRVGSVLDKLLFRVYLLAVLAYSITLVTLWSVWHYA

The target in this test is 5-HT3R (Cavia porcellus, UniProt O70212). Conditions: percent of maximal contraction of guinea pig ileum induced by control agonist (5-HT).

Read-outs that look alike come from different tables or passages of the source.

For the compound `CN1CCN(c2nc3ccccc3c3[nH]ccc23)CC1` [Compound 5d, 4-(4-Methylpiperazin-1-yl)-1H-pyrrolo[3,2-c]quinoline], the agonist effect (100 nM) stood at 100%. The compound `c1ccc2c(c1)nc(N1CCNCC1)c1cc[nH]c12` [Compound 5e, 4-(Piperazin-1-yl)-1H-pyrrolo[3,2-c]quinoline] came in with an agonist effect (100 nM) of 9% and an agonist effect (300 nM) of 43%.
